Data as given in patent US20250092067A1, “APT1 and APT2 Inhibitors and Uses Thereof” (Cornell University, priority 2021, published 2025).
Read-outs that look alike come from different tables or passages of the source.

Chains of the proteins cited; added tags and fusions are not shown. Lines headed by an entry give the natural chain unless they say otherwise; changes in a name come on top.
UniProt O95372: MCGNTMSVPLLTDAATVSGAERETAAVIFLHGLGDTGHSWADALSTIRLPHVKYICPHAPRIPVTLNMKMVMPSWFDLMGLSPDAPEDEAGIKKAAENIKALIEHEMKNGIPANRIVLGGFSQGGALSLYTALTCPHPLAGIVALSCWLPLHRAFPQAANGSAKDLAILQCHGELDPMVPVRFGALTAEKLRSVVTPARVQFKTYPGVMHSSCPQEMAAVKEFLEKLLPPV
UniProt O75608: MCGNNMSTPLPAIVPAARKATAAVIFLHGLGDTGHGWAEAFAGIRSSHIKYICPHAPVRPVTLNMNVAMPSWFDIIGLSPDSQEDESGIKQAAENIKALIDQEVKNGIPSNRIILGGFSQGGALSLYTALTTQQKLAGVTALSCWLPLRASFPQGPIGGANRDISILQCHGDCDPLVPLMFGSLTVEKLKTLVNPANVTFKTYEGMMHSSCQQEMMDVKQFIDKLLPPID

Assays:
APT2 = APT2 (Homo sapiens, UniProt O95372); assay: APT2 enzymatic assay, resorufin acetate as fluorogenic substrate; assay type: biochemical
APT1 = APT1 (Homo sapiens, UniProt O75608); assay: APT1 enzymatic assay, resorufin acetate as fluorogenic substrate; assay type: biochemical; settings: for APT2 selectivity / inhibition of APT1: qualitative, FIG. 4; for IC50: read-out: IC50 (μM) APT1

| SMILES | IC50 (APT2; read-out: IC50 (μM) APT2, Table 1, resorufin acetate as the substrate) | IC50 (APT2; read-out: IC50 (μM) APT2, Table 2, class symbols) | IC50 (APT2; read-out: IC50 APT2, Example 3 (FIG. 4), 15 min pre-incubation) | APT2 selectivity / inhibition of APT1 (APT1) | IC50 (APT1; Table 1, resorufin acetate as the substrate) | IC50 (APT1; Table 2, class symbols) |
| --- | --- | --- | --- | --- | --- | --- |
| CCOP(=O)(OCC)c1cc2cc(C(=O)N3CCN(c4ccc(OC)cc4)CC3)sc2c2ccccc12 | 4.92 µM | 1 to 40 µM | 5 µM | lost APT2 selectivity | 1.6 µM | 1 to 40 µM |
| COc1ccc(N2CCN(C(=O)c3cc4cc(B(O)O)c5ccccc5c4s3)CC2)cc1 | – | – | – | lost APT2 selectivity | – | – |
